Laboratory results published in patent US11246873B2, “Directed differentiation of oligodendrocyte precursor cells to a myelinating cell fate” (The Scripps Research Institute, priority 2011, dated 2022).

Tested on: PLP induced EAE mice
Conditions: various doses i.p. (FTY720 1, 0.1, 0.01 mg/kg; interferon-β 10,000, 3000, 1000 U per mouse)
Method: (A-E) SJL mice were immunized with proteolipid peptide (PLP) and pertussis toxin and monitored daily with scoring on the standard clinical EAE scale (0-5). Compounds were administered daily for the duration of the study in saline at 10 mg/kg via intra-peritoneal injection (0.1 ml), starting on the day of the appearance of clinical EAE symptoms (day 10). […] Mean clinical EAE score and standard error of mean (SEM) are shown for each study group.
FIG. 25. […] EAE was induced in mice using PLP and pertussis toxin. […] Prophylactic dosing is defined as administration of compound commenced on the day of PLP injection. Error bars indicate standard deviation of the mean within each group of 8 mice.
(A-F) EAE was induced in mice using PLP and pertussis toxin. […] Error bars indicate standard deviation of the mean within each group of 8 mice.
(A-F) EAE was induced in mice by injecting PLP in complete Freund's adjuvant (CFA) and pertussis toxin, and the animals were scored daily for clinical severity of disease on a scale of 0-5. […] Error bars indicate standard deviation of the mean within each group of 8-10 mice.
10 week old SJL mice were immunized with PLP emulsion and pertusis toxin to induce EAE. […] The mice were scored daily on a standard EAE scale of 0-5. […]

B1: interferon-β: immunomodulating drug approved for the treatment of MS (protein, UniProt P01574 22-187, looked up)
Interferon beta: MSYNLLGFLQRSSNFQCQKLLWQLNGRLEYCLKDRMNFDIPEEIKQLQQFQKEDAALTIYEMLQNIFAIFRQDSSSTGWNETIVENLLANVYHQINHLKTVLEEKLEKEDFTRGKLMSSLHLKRYYGRILHYLKAKEYSHCAWTIVRVEILRNFYFINRLTGYLRN
- dose dependence of clinical EAE scores: dose dependent activity
